The test deals with T1, human IgG Fc region (Homo sapiens, UniProt P01857).
T1 construct: The Fc region was prepared by the papain digestion of a human monoclonal antibody IgG
Kind of test: SPR binding affinity analysis on immobilized Fc region prepared by papain digestion of human monoclonal IgG. Conditions: alanine variants of p17_2, Fc region immobilized on CM5; read-out: KD (nM), binding dissociation constant of p17_2 variant. The method, then:
Subsequently, use of the constructed T7 phage display library is shown in the steps of: contacting the library with the target substance human IgG Fc region; and selecting and recovering phages bound with the human IgG Fc region. The Fc region was prepared by the papain digestion of a human monoclonal antibody IgG (Chugai Pharmaceutical Co., Ltd.) according to the instruction manual attached to Pierce® Fab Preparation Kit (Thermo Fisher Scientific Inc. Pierce) followed by purification by affinity chromatography using MabSelect SuRe (GE Healthcare Japan Corp.), HiTrap DEAE anion-exchange chromatography (GE Healthcare Japan Corp.), and gel filtration chromatography using Superdex 200 (GE Healthcare Japan Corp.). The prepared Fc region was chemically biotinylated via an amino group using D-Biotinoyl-γ-Aminocaproic Acid N-Hydroxysuccinimide Ester (F. Hoffmann-La Roche, Ltd.) according to the attached instruction manual. […]
Subsequently, the prepared p17_2 peptide was analyzed for its binding affinity by surface plasmon resonance. […]
Subsequently, the prepared 5 types of polypeptides were analyzed for their binding affinity by surface plasmon resonance. […]

As usually defined, the Kd is the equilibrium constant for the complex coming apart.

Take “p17_M51A: alanine variant of p17_2 polypeptide, SEQ ID NO: 64 (GPGISAFSPGRGVYDPETGTWYDAAWHLGELVWATYYDPETGTWEPDWQRALGQ; Selected sequence, p17_M51A)”: the Kd is 180 nM.
